pKd: −log10 of the molar value.
Biological target: tumor necrosis factor receptor 1 (UniProt P19438)
Experiment: SPR

Protein sequences, listed by entry. Tags and fused reporters are not part of them. Residues count along the entry.
UniProt P19438, 30-211: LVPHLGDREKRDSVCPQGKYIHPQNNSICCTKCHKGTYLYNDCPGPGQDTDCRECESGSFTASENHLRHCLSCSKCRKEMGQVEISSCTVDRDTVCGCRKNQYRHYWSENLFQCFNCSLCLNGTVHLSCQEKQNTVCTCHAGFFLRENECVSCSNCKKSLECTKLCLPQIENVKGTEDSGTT

Hydrostatin-SN1 (peptide)
pKd: 4.49

— paper PMC4860709
